Laboratory results reported in patent US20100204275A1 (published 2010).

Chains of the proteins cited; added tags and fusions are not shown. Residues count along the entry.
UniProt P23977, whole entry, looked up: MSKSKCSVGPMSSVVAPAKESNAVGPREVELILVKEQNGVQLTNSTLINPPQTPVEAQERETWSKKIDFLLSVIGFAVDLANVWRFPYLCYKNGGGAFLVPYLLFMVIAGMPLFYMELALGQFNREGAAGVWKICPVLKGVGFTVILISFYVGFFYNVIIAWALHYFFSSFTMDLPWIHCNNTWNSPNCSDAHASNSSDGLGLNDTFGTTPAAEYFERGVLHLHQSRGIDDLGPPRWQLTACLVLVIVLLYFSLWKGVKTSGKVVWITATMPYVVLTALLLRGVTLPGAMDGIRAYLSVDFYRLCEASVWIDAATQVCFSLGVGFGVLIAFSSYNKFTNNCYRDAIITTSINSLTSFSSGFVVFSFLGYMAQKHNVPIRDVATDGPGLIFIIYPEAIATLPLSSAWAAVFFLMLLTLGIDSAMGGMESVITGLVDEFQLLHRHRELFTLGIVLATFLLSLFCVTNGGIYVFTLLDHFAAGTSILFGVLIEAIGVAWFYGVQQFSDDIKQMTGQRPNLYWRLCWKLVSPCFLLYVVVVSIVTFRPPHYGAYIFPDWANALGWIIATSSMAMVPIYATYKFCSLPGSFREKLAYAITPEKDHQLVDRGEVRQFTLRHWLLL
UniProt Q63380, 1-617: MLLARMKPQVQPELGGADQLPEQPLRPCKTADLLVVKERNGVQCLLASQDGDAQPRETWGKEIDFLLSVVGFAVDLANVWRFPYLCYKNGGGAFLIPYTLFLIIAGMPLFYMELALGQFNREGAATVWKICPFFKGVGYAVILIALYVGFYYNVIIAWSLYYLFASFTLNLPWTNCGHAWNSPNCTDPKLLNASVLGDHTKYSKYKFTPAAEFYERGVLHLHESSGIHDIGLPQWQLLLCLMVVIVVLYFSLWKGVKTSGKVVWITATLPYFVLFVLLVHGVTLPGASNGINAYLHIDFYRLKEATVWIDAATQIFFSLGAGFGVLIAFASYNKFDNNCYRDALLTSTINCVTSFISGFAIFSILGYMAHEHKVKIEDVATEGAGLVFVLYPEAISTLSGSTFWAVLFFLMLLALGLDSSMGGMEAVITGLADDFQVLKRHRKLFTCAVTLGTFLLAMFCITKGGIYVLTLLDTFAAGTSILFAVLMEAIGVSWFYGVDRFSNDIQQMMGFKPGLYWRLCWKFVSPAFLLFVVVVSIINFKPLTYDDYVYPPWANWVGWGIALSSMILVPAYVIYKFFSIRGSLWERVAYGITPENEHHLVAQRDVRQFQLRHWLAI
UniProt P31652, whole entry, looked up: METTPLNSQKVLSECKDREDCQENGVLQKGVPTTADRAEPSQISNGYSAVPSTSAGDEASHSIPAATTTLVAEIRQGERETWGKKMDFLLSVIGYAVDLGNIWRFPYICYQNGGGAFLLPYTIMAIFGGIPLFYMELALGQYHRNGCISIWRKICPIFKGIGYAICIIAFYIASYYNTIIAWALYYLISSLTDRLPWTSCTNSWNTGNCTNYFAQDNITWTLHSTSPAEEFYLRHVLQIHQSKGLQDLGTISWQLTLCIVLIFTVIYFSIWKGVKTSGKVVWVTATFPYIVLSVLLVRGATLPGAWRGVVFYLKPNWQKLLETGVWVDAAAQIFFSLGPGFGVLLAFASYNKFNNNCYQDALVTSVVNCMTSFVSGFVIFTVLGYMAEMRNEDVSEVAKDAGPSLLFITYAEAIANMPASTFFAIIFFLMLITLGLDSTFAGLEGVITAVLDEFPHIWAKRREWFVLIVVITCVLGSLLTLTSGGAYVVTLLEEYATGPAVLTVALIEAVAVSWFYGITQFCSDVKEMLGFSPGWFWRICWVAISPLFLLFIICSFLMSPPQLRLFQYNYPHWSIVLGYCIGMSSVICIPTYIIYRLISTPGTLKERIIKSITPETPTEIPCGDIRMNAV

Tests used:
[1] = biological target: reuptake of dopamine (DA) in synaptosomes (Rattus norvegicus, UniProt P23977); test: Inhibition of DA reuptake in synaptosomes; conditions: read-out: DA-uptake IC50, 3H-DA
[2] = biological target: reuptake of noradrenaline (NA) in synaptosomes (Rattus norvegicus, UniProt Q63380); test: Inhibition of NA reuptake in synaptosomes; conditions: read-out: NA-uptake IC50, 3H-NA
[3] = biological target: reuptake of serotonine (5-HT) in synaptosomes (Rattus norvegicus, UniProt P31652); test: Inhibition of 5-HT reuptake in synaptosomes; conditions: read-out: 5-HT-uptake IC50, 3H-5-HT

Row | Compound | IC50 [1] [nM] | IC50 [2] [nM] | IC50 [3] [nM]
1 | CCC(=O)N(CC1CCNCC1)c1ccc(Cl)c(Cl)c1 | 86 | 7.2 | 6.6
2 | CCC(=O)N(CC1CCNCC1)c1ccc2cc(O)ccc2c1 | 490 | 8.1 | 47
